{"source": "patent US20130096067A1", "about": "“DROSOPHILA TUMOR STEM CELL MODEL AND USES THEREOF” (priority 2011, published 2013); also: test concentration or dose not given here", "test_system": "Raf-1^gof intestinal tumors", "conditions": "in vivo", "data": [{"compound": "CC1=C2C[C@H]3[C@@H](CC=C4C[C@@H](O)CC[C@@]43C)[C@@H]2CC[C@]12O[C@@H]1C[C@H](C)CN[C@H]1[C@H]2C", "note": "[cyclopamine]", "values": [{"measurement": "Fold (luciferase activity relative to DMSO controls)", "value": 0.905, "unit": "fold"}, {"measurement": "Log2 (fold) of luciferase activity relative to DMSO controls", "value": "−0.144"}]}]}
